Ab-91 heavy chain CDR variants: yeast mating affinities

The target is the same throughout: PDVDLGDISGINAS, from the HR2 region of SARS-CoV-2 spike.

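The parent was found by panning a naive human phage display library on the peptide. In library AAYL51, one, two or three CDR residues were substituted; doubles and triples were drawn at random. AlphaSeq pools MATa yeast showing the antibodies with MATalpha yeast showing the peptide. Pairs that bind mate more often; barcode pairs of the diploids are counted by sequencing. Each replicate has its own calibration line, from reference interactions of the BCL2 family. There are three technical replicates.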

Parent: Ab-91, a human scFv built as VL, a 15-residue (Gly4Ser)3 linker, VH. Only the CDRs of the heavy chain vary.
VL: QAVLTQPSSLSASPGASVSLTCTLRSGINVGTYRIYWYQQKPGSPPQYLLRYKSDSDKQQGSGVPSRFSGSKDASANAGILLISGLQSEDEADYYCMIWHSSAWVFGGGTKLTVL
VH: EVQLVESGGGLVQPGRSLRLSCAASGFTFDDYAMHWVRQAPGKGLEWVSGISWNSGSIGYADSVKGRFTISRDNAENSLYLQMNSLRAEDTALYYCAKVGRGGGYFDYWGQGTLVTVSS

Each variant is given by its three heavy chain CDRs, as the data file delimits them; those of the parent are GFTFDDYAMH, GISWNSGSIGYADSVK, VGRGGGYFDY. Each Kd is an estimate from the mating assay, the geometric mean of the replicates in which the pair was seen; lower is stronger. A pair that was not seen in any replicate is written "not detected"; this usually means weak binding, but a binder can also be missed. For reference, the parent read 72 nM as the reference entry and 7.5 nM as a member of this library. Empty control strains, which show no peptide, gave a signal in 21% of pairings with library AAYL51; the median was 34 µM and 95% of these signals were weaker than 1.8 µM. No background was subtracted. Also given: how often the same scFv was detected with the empty control strains.

CDR-H1	CDR-H2	CDR-H3	Kd	seen in	empty controls
GFTFDDYAED	GISWASGSIGYADSVK	VGRGGGYFDY	3.4 µM	2/3	1/9
GFTFDDYAPH	GISWNSGSIGYADSVK	VGDGGGYFDP	39 µM	1/3	3/9
GFTFDDYAMH	GISWNSGSIYYADSVK	PGRGGGYFDY	150 µM	1/3	2/9
GFTFDSYAMH	GIQWNSASIGYADSVK	VGRGGGYFDY	not detected	0/3	0/9
GDTFDDYAMH	GISWNSGSIGYPDSVK	VGRGQGYFDY	not detected	0/3	0/9
GFTFDDYEVH	GISWNSGSIGYADSVK	VGRGGGYFDQ	61 µM	2/3	7/9
RFTFDNYAMG	GISWNSGSIGYADSVK	VGRGGGYFDY	not detected	0/3	0/9
GFTFDKYAMH	GISWNSGSIGYADSSK	VVRGGGYFDY	not detected	0/3	0/9
GFTFDDYAWH	GISWNSGSGGYADSVK	VGVGGGYFDY	240 nM	3/3	7/9
GFTFDDYAMH	GCSWNSGCIGYCDSVK	VGRGGGYFDY	not detected	0/3	2/9
GFTNDDYAMS	GISWNSGQIGYADSVK	VGRGGGYFDY	4.4 µM	1/3	0/9
GFTMDDYWMH	GISWNCGSIGYADSVK	VGRGGGYFDY	4.4 µM	1/3	1/9
GFPFDDYAMH	GISVNSGSIDYADSVK	VGRGGGYFDY	71 µM	1/3	2/9
GFTFDDYAMH	GISWNKGSIGYQDSLK	VGRGGGYFDY	24 µM	2/3	2/9
GFTFDDYAMH	GISWNSGSRGYADSVK	VGDGGGYFQY	16 µM	3/3	5/9
GFTFDDYAMH	GISWNSGSIGYLDSVK	VGRGGTYFDF	7.5 µM	3/3	7/9
GFTFDDYAEH	KISWNSGSIGYFDSVK	VGRGGGYFDY	not detected	0/3	1/9
GFTFDDYAMH	GISDNSGSIGYADSVK	VGRGGVYFNY	not detected	0/3	5/9
AFTFDDYAMH	GISWNSGSIGIADSVK	VGRGAGYFDY	280 µM	2/3	4/9
GKTFDDYAMH	GISENSGSIGYADTVK	VGRGGGYFDY	3.4 µM	1/3	0/9
GFTIDDYAMH	GISWNSQSIGYADSVK	TGRGGGYFDY	9.9 µM	3/3	7/9
GFTVDDYAMH	GIFWNSGSIGYADSVK	VGRGGGYFDY	180 µM	3/3	7/9
GFTFGDSAMH	GISWNSGSIGYADSVK	VGRGGGQFDY	91 nM	3/3	5/9
GFTFDDYAMH	GISWNSGSIGYKDSVK	VGRGGWYFGY	not detected	0/3	1/9
GFTFDDFAMH	GCSWNSGYIGYADSVK	VGRGGGYFDY	not detected	0/3	4/9
GFTFDDYAMV	GISWNSGFIGYADSVK	VGRAGGYFDY	140 µM	2/3	4/9
GFTFDDYAMH	GISWNSGSIGYADSVP	VGRGGGYFDT	71 µM	2/3	6/9
GFTFDDYAMH	GISWNNGSIGYADSWK	VGRGGGYFDY	not detected	0/3	0/9
GFTFDDYAMH	GISTNSGNIGYFDSVK	VGRGGGYFDY	5.7 µM	3/3	1/9
GITFDDYAMH	GISDNSGSIGYADSVK	VGRGGYYFDY	110 µM	3/3	6/9
GFTFDDYAMH	GASWNSGAIAYADSVK	VGRGGGYFDY	not detected	0/3	2/9
GFTFDLYAMH	GISWNSGSQGYVDSVK	VGRGGGYFDY	1.1 µM	2/3	0/9
GFTFDDYAMH	GISDNSGSIGYADSVK	VGRNGGYFDD	2.9 µM	1/3	0/9
GFTFDDYAMH	GISWNSGAIGYNDSVK	VGRGGGYFDY	500 nM	3/3	6/9
FFTFDDYAMH	GIAWNSGSIGYADSVK	VFRGGGYFDY	1.2 mM	1/3	9/9
GFHFDDYATH	GISWNSGSIGYADSVK	VSRGGGYFDY	64 µM	1/3	1/9
GFTCDDYAMH	GISWNSTSIGYWDSVK	VGRGGGYFDY	3.7 mM	2/3	5/9
GFTFDNYAMH	GISWNSGSIGYADSVK	VGRTGGYFDY	59 µM	2/3	2/9
GFTWDDCAMH	GISWNSGSIGYADSVK	VGRYGGYFDY	1.2 µM	3/3	1/9
GFTFDDYAMV	GISWNSGSIGYADQVK	MGRGGGYFDY	33 µM	2/3	5/9
GFTFDDYAMH	GISWNSGSICYAMSVK	MGRGGGYFDY	not detected	0/3	0/9
GFTFDDYAMH	GISWNSGSIGYADSVK	VGSGEGYFDY	210 nM	3/3	1/9
GFTTDDEAMG	GISWNSGSIGYADSVK	VGRGGGYFDY	not detected	0/3	3/9
GFTFDDYKMH	GISWNSGSIGYADPVK	VGRGGGCFDY	not detected	0/3	0/9
GFTFDDYAME	GISWNSGSIGYADSVK	VGRHGGDFDY	not detected	0/3	2/9
GFTFDDYSMH	GISWNLGSPGYADSVK	VGRGGGYFDY	9.0 µM	3/3	0/9
RFTFDDYAMH	GQSWNSGSIGYADSVK	VGRGGVYFDY	65 µM	1/3	6/9
GFTFDDYAMH	KISWNSGSIGYADSVK	YGREGGYFDY	530 µM	2/3	1/9
GFWFDDYAMH	GISWNSGSIGYADVVK	VGRRGGYFDY	2.6 µM	1/3	0/9
GFTFDDYAMH	GLSWNSGSIGYADSVK	GGRCGGYFDY	81 nM	3/3	2/9
GFTFDDYAMH	GIPWNSGSIGYADSVK	VGRGGQYFDF	19 µM	1/3	3/9
GFTFDDYAMH	GISWNSISIGYADSVK	YGRGGGYFCY	510 µM	2/3	3/9
GFTFDDYAMH	GIQINSGSIGYADSVM	VGRGGGYFDY	110 µM	1/3	2/9
GFTFDDYAMH	GIKVNSGSIGVADSVK	VGRGGGYFDY	590 µM	2/3	3/9
GFTFDDYAMH	GISYNSLSIGYADSVK	VGRGGGYFDK	39 nM	3/3	0/9
NFTFLDYAPH	GISWNSGSIGYADSVK	VGRGGGYFDY	170 µM	1/3	3/9
GFTFDDYSMH	GISWNSGSIGYADSVK	VGRGGPYFDY	390 nM	3/3	4/9
GFTFDDYAQH	GISWNSGSIGVADSVK	VGRGGGYYDY	35 µM	1/3	2/9
GFLFDDYAMH	YISWNSGCIGYADSVK	VGRGGGYFDY	not detected	0/3	0/9
GFTFDDYAMH	RISMNSGSIYYADSVK	VGRGGGYFDY	120 µM	1/3	1/9
GFTFDWYAMH	DISWNSGSIGYADSVK	VGRGGGYFQY	not detected	0/3	0/9
HFTFDDYAMH	GISWNSWSIGYADSVK	VGRGGGYADY	not detected	0/3	1/9
GFTFDDYAMH	GISWNSVSIGYADSSK	VGRGGGYFDY	not detected	0/3	0/9
GFTFDDYAMH	GISWNSGSIGYADSVP	VGRGKGYFDF	67 µM	2/3	1/9
GFTFDDYAMH	GISWNSGSIGCADSVK	VGIGGGKFDY	not detected	0/3	0/9
GFTFDIYAMH	GISWNSGSIGYADQVK	VGEGGGYFDY	27 µM	1/3	2/9
YFTFDDYAGH	GISWNSGSIGYADSVH	VGRGGGYFDY	not detected	0/3	2/9
MFTFDDYAMH	GISWNCGSIGYADDVK	VGRGGGYFDY	not detected	0/3	0/9
GFLFDDYAMH	GISCNSGSIGYADSVK	VGRGGYYFDY	18 µM	3/3	3/9
GFFFDDYAMH	GISWNSGSIGYADVVK	VGRGGGYFDY	not detected	0/3	3/9
GFTFDDYAMH	GISWNSGSIGYADSVI	VWGGGGYFDY	not detected	0/3	0/9
GFTFDDYAMH	GISQNSGNIGYADSVK	VGRGGGYFDY	1.4 µM	1/3	1/9
GFTFDDYAMH	GISWNSGSIGYRDSVK	VGWTGGYFDY	not detected	0/3	0/9
GFTFNDGAMH	GISWNSGSIGYADSVI	VGRGGGYFDY	not detected	0/3	0/9
QFTFDDYAMH	GISWNSDSIGYADSVK	PGRGGGYFDY	33 µM	1/3	3/9
GFRFDDYAMP	GISWNSGSIGYADSVK	VGRGGGYFSY	not detected	0/3	0/9
GFTFDDYAMH	GISFNSGSIGYADSVK	VGRGGGYFLY	3.2 nM	3/3	0/9
GFTFDDYAMH	GISWNSGSIGYADSNK	VGGGGRYFDY	94 µM	2/3	4/9

Again, the first 4 entries without any signal:

| CDR-H1 | CDR-H2 | CDR-H3 | Kd | seen in | empty controls |
|---|---|---|---|---|---|
| GFTFDSYAMH | GIQWNSASIGYADSVK | VGRGGGYFDY | not detected | 0/3 | 0/9 |
| GDTFDDYAMH | GISWNSGSIGYPDSVK | VGRGQGYFDY | not detected | 0/3 | 0/9 |
| RFTFDNYAMG | GISWNSGSIGYADSVK | VGRGGGYFDY | not detected | 0/3 | 0/9 |
| GFTFDKYAMH | GISWNSGSIGYADSSK | VVRGGGYFDY | not detected | 0/3 | 0/9 |

The measurements come from Engelhart et al. 2022 (doi:10.1038/s41597-022-01779-4) through the FLAb antibody collection.